Literature values in patent US20190091190A1, “COMBINATION THERAPY FOR TREATMENT OF MULTIPLE SCLEROSIS” (FWP IP ApS, priority 2012, published 2019).

What was measured:
patients with RRMS [1] = conditions: 30 μg/week i.m.
patients with RRMS [2] = conditions: Rebif arm
RRMS patients = conditions: interferon beta-1a arm

Avonex: intramuscular IFN-b-1a, 30 μg/week, comparator in TRANSFORMS
AE leading to the discontinuation of study medication (patients with RRMS [1]): 3.7% | overall number of SAE (patients with RRMS [1]): 5.8% | patients remaining relapse-free (patients with RRMS [1]; 12 months): 69%

B1: Rebif: Interferon beta-1a product, comparator arm in TENERE (protein, UniProt P01574 22-187, looked up)
Interferon beta: MSYNLLGFLQRSSNFQCQKLLWQLNGRLEYCLKDRMNFDIPEEIKQLQQFQKEDAALTIYEMLQNIFAIFRQDSSSTGWNETIVENLLANVYHQINHLKTVLEEKLEKEDFTRGKLMSSLHLKRYYGRILHYLKAKEYSHCAWTIVRVEILRNFYFINRLTGYLRN
relapse rate (patients with RRMS [2]): 0.216

B2: interferon beta-1a: exploratory interferon beta-1a arm in BRAVO, brand not stated (protein, UniProt P01574 22-187, looked up)
Interferon beta: MSYNLLGFLQRSSNFQCQKLLWQLNGRLEYCLKDRMNFDIPEEIKQLQQFQKEDAALTIYEMLQNIFAIFRQDSSSTGWNETIVENLLANVYHQINHLKTVLEEKLEKEDFTRGKLMSSLHLKRYYGRILHYLKAKEYSHCAWTIVRVEILRNFYFINRLTGYLRN
treatment effect on brain atrophy (RRMS patients): no treatment effect | ARR reduced compared to placebo (RRMS patients; p=0.002): 29% | disability progression reduced (RRMS patients; p=0.089): 29%
